The source of these data is US12226401B2, “Molecular genetic approach to treatment and diagnosis of alcohol and drug dependence” (priority 2010, dated 2025).

SMILES strings stand for the structures.

This experiment deals with alcohol dependent individuals. Kind of experiment: GMDR epistatic analysis of multigene SNP combinations (SERT, 5HT-3A, 5HT-3B) for association with ondansetron treatment outcome. Also noted: species or system human.
Setting [1] is: 5-HTTLPR + rs1042173: all other genotype combinations.
The mark [2] stands for this setting: rs3758987 + 5-HTTLPR + rs1042173: TT/CT + LL + TT.
The mark [3] stands for this setting: rs3758987 + 5-HTTLPR + rs1042173: all other genotype combinations.
Setting [4] is: rs3758987 + 5HTTLPR: TT/CT + LL.
[5] abbreviates: rs3758987 + 5HTTLPR: all other genotype combinations.
The mark [6] stands for this setting: rs3758987 + rs1042173: TT/CT + TT.
Where [7] appears, read: rs3758987 + rs1042173: all other genotype combinations.
Where [8] appears, read: rs3758987 + rs2276307 + 5-HTTLPR + rs1042173: TT/CT + AA + LL + TT.
Where [9] appears, read: rs3758987 + rs2276307 + 5-HTTLPR + rs1042173: all other genotype combinations.
Setting [10] is: rs3758987 + rs2276307 + 5-HTTLPR: TT/CT + AA + LL.
Setting [11] is: rs3758987 + rs2276307 + 5-HTTLPR: all other genotype combinations.

Turning to `Cc1nccn1CC1CCc2c(c3ccccc3n2C)C1=O` (stereo not drawn) [ondansetron, 9-methyl-3-[(2-methyl-1H-imidazol-1-yl)methyl]-1,2,3,9-tetrahydrocarbazol-4-one], the “OND-non-responders N (More than 3 standard drinks improvement from the baseline in the last 2 months)” value is on record as 4 (5-HTTLPR + rs1042173: LL + TT); 64 under setting [1]; 4 under setting [2]; 64 under setting [3]; 16 under setting [4]; 52 under setting [5]. For the same compound, the “OND-non-responders N (More than 3 standard drinks improvement from the baseline in the last 2 months)” value by setting is: under setting [6], 14; under setting [7], 54; under setting [8], 2; under setting [9], 66; under setting [10], 12; under setting [11], 56. For the same compound, the “OND-responders N (More than 3 standard drinks improvement from the baseline in the last 2 months)” value (“OND-responders N” below) (5-HTTLPR + rs1042173: LL + TT) was 16; the “OND-responders N” value under setting [1] came to 41; the “OND-responders N” value under setting [2] was 15; the “OND-responders N” value under setting [3] came out at 42; the “OND-responders N” value under setting [4] turned out to be 23; the “OND-responders N” value under setting [5] amounted to 34. Further, the “OND-responders N” value reads like this: under setting [6], 22; under setting [7], 35; under setting [8], 13; under setting [9], 44; under setting [10], 20; under setting [11], 37.
